# Laboratory results as given in US20090239949A1, “Polar Hydrophilic Prodrugs of Amphetamine and Other Stimulants and Processes for Making and Using the Same” (priority 2007, published 2009).
# Test: Oral pharmacokinetic study of hArg-Amp vs Lys-Amp, plasma d-amphetamine by ELISA (Example 12)
# Details: oral gavage, […] d-amphetamine freebase equivalent, n=5
smiles,measurement,value
"C[C@@H](Cc1ccccc1)NC(=O)[C@@H](N)CCCCN=C(N)N.Cl.Cl [hArg-Amp, l-homoarginine-d-amphetamine dihydrochloride]",Tmax,4 h
